# Antibody variant affinities, Ab-14 light chain, assay 1

The measurements come from Engelhart et al. 2022 (doi:10.1038/s41597-022-01779-4) through the FLAb antibody collection.

Target peptide (SARS-CoV-2 spike, HR2 region): PDVDLGDISGINAS

Parent: Ab-14, a human scFv built as VH, a 15-residue (Gly4Ser)3 linker, VL. Only the CDRs of the light chain vary.
VH: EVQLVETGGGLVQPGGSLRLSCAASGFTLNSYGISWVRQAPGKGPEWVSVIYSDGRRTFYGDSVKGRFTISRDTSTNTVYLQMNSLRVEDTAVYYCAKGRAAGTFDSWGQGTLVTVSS
VL: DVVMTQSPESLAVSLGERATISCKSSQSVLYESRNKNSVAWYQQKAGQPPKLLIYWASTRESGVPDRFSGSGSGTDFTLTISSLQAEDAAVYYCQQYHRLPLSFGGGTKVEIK

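The parent was found by panning a naive human phage display library on the peptide. Library AAYL50 holds single substitutions and randomly drawn double and triple substitutions in the CDRs. AlphaSeq pools MATa yeast showing the antibodies with MATalpha yeast showing the peptide. Mating (16 h, 30 °C) was followed by selection of diploids and sequencing of their barcodes. The ratio of observed to expected reads was calibrated, replicate by replicate, on BCL2-family standards whose Kd was known from biolayer interferometry. Each pool was mated in three replicate cultures.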

Positions count from residue 1 of the parent VL; S28W puts W in place of S. Values are apparent Kd, the geometric mean of the replicates that gave a signal; lower means stronger binding. A pair that was not seen in any replicate is written "not detected"; this usually means weak binding, but a binder can also be missed. Entries are sorted by rising average, undetected variants last. Parent in this assay: reference entry 4.4 nM, copy in this library 48 nM. Nonspecific signal, from three strains lacking the peptide, appeared in 18% of pairings of library AAYL50, centred on 15 µM (5% of these signals below 970 nM); values are not corrected for it.

changes,Kd,replicates with signal
S28W/W56G,870 pM,3 of 3
S25F/S26D/N37D,1.0 nM,3 of 3
Y31R/N35D,1.9 nM,3 of 3
R34D/W56A/L100F,4.0 nM,3 of 3
S25H/W56H/E61K,4.8 nM,3 of 3
Q27N/Y31Q/N35H,4.8 nM,3 of 3
W56N/R60F/H98G,6.1 nM,3 of 3
Q27C/S28A/V29D,6.3 nM,3 of 3
K36W/W56E/H98K,9.5 nM,3 of 3
N35E/K36D/Q95C,9.5 nM,3 of 3
K36W/T59H/S62E,13 nM,3 of 3
S25L/Q96C,14 nM,3 of 3
V29W/N37G,22 nM,3 of 3
Q27G/R34G/S62H,25 nM,3 of 3
K24H/Q27C/V29F,25 nM,3 of 3
N37H/R99A,29 nM,3 of 3
K36F/A57K/Q95V,30 nM,3 of 3
L30E/S58K/L102I,33 nM,3 of 3
S62M/Q96A/R99D,35 nM,3 of 3
E32F/R34N/P101M,43 nM,3 of 3
K24N/E32D/E61D,56 nM,3 of 3
S25N/R99V,61 nM,3 of 3
S26T/S38A/E61T,69 nM,3 of 3
L30R/A57D/P101H,71 nM,3 of 3
N37Y/A57R,91 nM,3 of 3
R34F/S38R/T59L,110 nM,3 of 3
L30R/R34Q/N37I,120 nM,3 of 3
E32L/E61M,120 nM,3 of 3
R34F/E61G/R99V,200 nM,3 of 3
E32Y/R34P/S58G,220 nM,3 of 3
S26K/E32Q,260 nM,3 of 3
K24V/Q96G/L102S,380 nM,1 of 3
S38I/E61H/H98Y,550 nM,3 of 3
L30K/K36V/S58Q,580 nM,3 of 3
S28V/V29K/S58I,580 nM,1 of 3
S28V/R99V,1.6 µM,2 of 3
S25P/V29M/S33K,1.7 µM,3 of 3
E32G/W56V/H98T,1.8 µM,1 of 3
S38D/S62G/Y97H,1.8 µM,3 of 3

The remaining entries, values ahead:

Kd,replicates with signal,changes
2.0 µM,1 of 3,R34M/S38V/S58R
3.0 µM,3 of 3,N35E/K36V
3.2 µM,1 of 3,K36S/S38Y/A40C
3.6 µM,2 of 3,K24A/R34L/N35A
5.5 µM,2 of 3,Y31S/S58L/R60S
8.6 µM,1 of 3,V29T/L30R/V39H
19 µM,2 of 3,A57I/Q95M/L102A
19 µM,1 of 3,K24H/A57L/Q96F
26 µM,2 of 3,S28N/A40G/L102Q
35 µM,1 of 3,V39S/L102I
38 µM,2 of 3,K24R/Y31R/V39K
60 µM,2 of 3,Y31A/V39Q/S58M
97 µM,2 of 3,K36V/A57D/S58E
110 µM,1 of 3,A57F/Q95V/L100C
160 µM,1 of 3,K24P/E61Q/L102K
390 µM,1 of 3,Q96C/L100S
730 µM,1 of 3,S26R/E61N/L100S
1.3 mM,1 of 3,S58D/R60P/Y97A
not detected,0 of 3,T59E/H98N/P101K
not detected,0 of 3,E32N/T59G/L102W
not detected,0 of 3,S25M/N37P/V39W
not detected,0 of 3,S26G/Y97G/R99V
not detected,0 of 3,L30R/R60D
not detected,0 of 3,S26V/R60S/Q96P
not detected,0 of 3,A57V/Y97E
not detected,0 of 3,Y31K/V39E/L100V
not detected,0 of 3,S28M/S38N/R99P
not detected,0 of 3,T59Y/R60G/Y97D
not detected,0 of 3,S26Q/N37E/W56V
not detected,0 of 3,V39Y/L100S/S103Q
not detected,0 of 3,K36I/Q96I/Y97C
not detected,0 of 3,S26N/S28L/R60D
not detected,0 of 3,Q27A/R99Y/L100N
not detected,0 of 3,S26R/R34C/A40C
not detected,0 of 3,K36P/Y97G
not detected,0 of 3,R34G/N37R/L102M
not detected,0 of 3,K24M/A40N/R60C
not detected,0 of 3,S25T/V29E/S33L
not detected,0 of 3,K24P/A57W/S62V
not detected,0 of 3,Q95W/H98S